Source: ChEMBL document CHEMBL2406934, “Orally available and efficacious α4β1/α4β7 integrin inhibitors” (Bioorg Med Chem Lett, 2013)

The chains behind the UniProt entries cited, without tags or fusion partners.
UniProt P05556, whole entry: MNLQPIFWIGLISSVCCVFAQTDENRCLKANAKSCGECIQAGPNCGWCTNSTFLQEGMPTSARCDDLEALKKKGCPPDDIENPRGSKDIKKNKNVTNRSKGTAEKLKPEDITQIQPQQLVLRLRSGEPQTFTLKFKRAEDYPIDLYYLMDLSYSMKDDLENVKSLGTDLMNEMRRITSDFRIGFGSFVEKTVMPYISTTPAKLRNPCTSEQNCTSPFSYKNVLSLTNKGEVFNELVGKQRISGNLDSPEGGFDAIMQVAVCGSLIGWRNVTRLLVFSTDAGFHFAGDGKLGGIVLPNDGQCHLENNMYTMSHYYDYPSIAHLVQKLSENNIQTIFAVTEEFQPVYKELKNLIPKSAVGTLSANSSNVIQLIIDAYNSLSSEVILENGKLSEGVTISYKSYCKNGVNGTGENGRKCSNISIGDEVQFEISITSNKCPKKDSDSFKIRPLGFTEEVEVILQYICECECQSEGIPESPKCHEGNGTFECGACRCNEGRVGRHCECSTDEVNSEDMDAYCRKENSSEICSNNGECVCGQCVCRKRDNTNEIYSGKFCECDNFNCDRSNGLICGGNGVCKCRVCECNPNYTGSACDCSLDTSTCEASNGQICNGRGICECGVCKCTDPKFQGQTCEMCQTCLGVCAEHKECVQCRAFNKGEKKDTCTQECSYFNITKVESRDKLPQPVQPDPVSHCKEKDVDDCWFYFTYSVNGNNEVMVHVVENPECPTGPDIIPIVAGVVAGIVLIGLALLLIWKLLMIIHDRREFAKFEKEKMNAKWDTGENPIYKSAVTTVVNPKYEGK

What was measured:
Type in all cases: protein-complex assay
[1] = biological target: T1, Integrin alpha-4/beta-7 (Homo sapiens, UniProt P13612+P26010); experiment: Inhibition of alpha4beta7 integrin-mediated human 8866 cell adhesion to MadCAM-1
T1 sequence (P13612 whole entry): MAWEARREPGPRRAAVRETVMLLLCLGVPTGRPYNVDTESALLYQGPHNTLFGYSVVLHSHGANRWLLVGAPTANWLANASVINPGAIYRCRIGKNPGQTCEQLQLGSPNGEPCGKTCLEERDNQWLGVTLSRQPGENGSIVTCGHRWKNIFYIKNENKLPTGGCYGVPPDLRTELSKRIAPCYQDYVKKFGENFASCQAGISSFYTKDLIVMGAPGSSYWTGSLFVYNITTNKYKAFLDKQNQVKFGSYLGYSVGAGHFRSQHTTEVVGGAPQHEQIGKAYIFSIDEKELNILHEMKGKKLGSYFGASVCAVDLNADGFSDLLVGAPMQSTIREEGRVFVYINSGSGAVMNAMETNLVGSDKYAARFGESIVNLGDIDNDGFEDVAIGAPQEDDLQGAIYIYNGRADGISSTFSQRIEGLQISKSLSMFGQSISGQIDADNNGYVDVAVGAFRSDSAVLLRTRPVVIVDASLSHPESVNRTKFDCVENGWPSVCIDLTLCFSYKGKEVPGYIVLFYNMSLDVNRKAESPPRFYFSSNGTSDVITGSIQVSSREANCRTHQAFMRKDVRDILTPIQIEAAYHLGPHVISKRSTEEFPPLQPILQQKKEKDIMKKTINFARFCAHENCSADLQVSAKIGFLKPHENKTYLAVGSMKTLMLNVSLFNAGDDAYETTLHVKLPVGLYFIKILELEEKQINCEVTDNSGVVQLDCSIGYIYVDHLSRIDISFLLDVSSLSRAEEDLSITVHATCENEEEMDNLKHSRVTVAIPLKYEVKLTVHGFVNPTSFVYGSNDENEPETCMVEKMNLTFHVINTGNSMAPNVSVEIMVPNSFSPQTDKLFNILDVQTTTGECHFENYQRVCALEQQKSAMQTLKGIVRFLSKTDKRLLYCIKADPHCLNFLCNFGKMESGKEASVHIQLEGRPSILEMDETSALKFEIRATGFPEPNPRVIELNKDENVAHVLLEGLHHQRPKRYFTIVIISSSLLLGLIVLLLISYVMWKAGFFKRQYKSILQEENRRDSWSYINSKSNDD
T1 sequence (P26010 whole entry): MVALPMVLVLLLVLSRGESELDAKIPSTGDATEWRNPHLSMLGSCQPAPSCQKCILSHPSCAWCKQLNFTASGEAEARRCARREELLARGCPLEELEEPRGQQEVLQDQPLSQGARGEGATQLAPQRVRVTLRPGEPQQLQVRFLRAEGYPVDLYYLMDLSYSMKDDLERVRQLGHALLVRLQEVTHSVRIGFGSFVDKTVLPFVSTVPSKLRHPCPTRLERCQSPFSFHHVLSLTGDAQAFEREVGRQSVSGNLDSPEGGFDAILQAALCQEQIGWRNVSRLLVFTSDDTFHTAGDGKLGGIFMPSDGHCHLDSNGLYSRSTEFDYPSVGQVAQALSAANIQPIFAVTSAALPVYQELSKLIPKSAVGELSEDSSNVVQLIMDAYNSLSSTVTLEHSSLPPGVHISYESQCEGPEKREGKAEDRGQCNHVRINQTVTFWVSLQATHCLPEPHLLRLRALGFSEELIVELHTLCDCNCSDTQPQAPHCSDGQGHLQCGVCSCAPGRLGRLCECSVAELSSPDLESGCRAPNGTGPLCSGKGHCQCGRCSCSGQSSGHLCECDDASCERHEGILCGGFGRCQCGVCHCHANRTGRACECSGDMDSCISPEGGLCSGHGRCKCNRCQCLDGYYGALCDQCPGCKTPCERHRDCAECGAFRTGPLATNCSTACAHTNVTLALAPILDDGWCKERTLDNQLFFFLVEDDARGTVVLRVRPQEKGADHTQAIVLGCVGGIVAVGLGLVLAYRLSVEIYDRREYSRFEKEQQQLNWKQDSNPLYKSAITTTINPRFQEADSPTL

[2] = biological target: T2, Integrin alpha-4/beta-1 (Homo sapiens, UniProt P05556+P13612); experiment: Inhibition of alpha4beta1 integrin-mediated human jurkat cell adhesion to fibronectin in absence of human serum albumin
[3] = biological target: T2, Integrin alpha-4/beta-1; experiment: Inhibition of alpha4beta1 integrin-mediated human jurkat cell adhesion to fibronectin in presence of human serum albumin

Structure (SMILES)	IC50 [1] [nM]	IC50 [2] [nM]	IC50 [3] [nM]
CCN(CC)c1ncc(N(CC)C(C)=O)c(N[C@@H](Cc2ccc(OC(=O)N3CCCC3)cc2)C(=O)O)n1	31	3.2	823
CCN(CC)c1ncc(N(CCc2ccccc2)S(C)(=O)=O)c(N[C@@H](Cc2ccc(OC(=O)N3CCCC3)cc2)C(=O)O)n1	262	9.5	2250
CCN(CC)c1ncc(-c2c(C)noc2C)c(N[C@@H](Cc2ccc(OC(=O)N(C)C)cc2)C(=O)O)n1	510	37	24500
CCN(CC)c1ncc(N(CC)C(=O)Nc2ccccc2)c(N[C@@H](Cc2ccc(OC(=O)N3CCCC3)cc2)C(=O)O)n1	67	7.5	3220
CCN(CC)c1ncc(N(c2cccnc2)S(C)(=O)=O)c(N[C@@H](Cc2ccc(OC(=O)N3CCCC3)cc2)C(=O)O)n1	594	10.3	3500
CCN(CC)C(=O)N(CC)c1cnc(N(CC)CC)nc1N[C@@H](Cc1ccc(OC(=O)N2CCCC2)cc1)C(=O)O	6	–	1050
CCN(CC)c1ncc(N(CC)C(=O)c2ccccn2)c(N[C@@H](Cc2ccc(OC(=O)N3CCCC3)cc2)C(=O)O)n1	4	–	165
CCN(CC)c1ncc(N(CC)C(=O)NCc2ccccc2)c(N[C@@H](Cc2ccc(OC(=O)N3CCCC3)cc2)C(=O)O)n1	174	18.5	7150
CCN(CC)c1ncc(N(CC)C(=O)c2cccc(F)c2)c(N[C@@H](Cc2ccc(OC(=O)N3CCCC3)cc2)C(=O)O)n1	55	2.3	656
CCN(CC)c1ncc(N(C)S(C)(=O)=O)c(N[C@@H](Cc2ccc(OC(=O)N3CCCC3)cc2)C(=O)O)n1	179	26.8	17500
CCN(CC)c1ncc(N(CC)C(=O)C(F)(F)F)c(N[C@@H](Cc2ccc(OC(=O)N3CCCC3)cc2)C(=O)O)n1	30	3.4	268
CCN(CC)c1ncc(N(c2ccccn2)S(C)(=O)=O)c(N[C@@H](Cc2ccc(OC(=O)N3CCCC3)cc2)C(=O)O)n1	468	128	61700
CCN(CC)c1ncc(N(CC)c2cccnc2)c(N[C@@H](Cc2ccc(OC(=O)N3CCCC3)cc2)C(=O)O)n1	156	59	17200
CCN(CC)c1ncc(N(CC)c2ccccc2F)c(N[C@@H](Cc2ccc(OC(=O)N3CCCC3)cc2)C(=O)O)n1	4550	97.1	–
CCN(CC)c1ncc(N(CC)C(=O)N(C)C)c(N[C@@H](Cc2ccc(OC(=O)N3CCCC3)cc2)C(=O)O)n1	14	5.7	1590
CCN(CC)c1ncc(N(CC)C(=O)c2ccsc2)c(N[C@@H](Cc2ccc(OC(=O)N3CCCC3)cc2)C(=O)O)n1	36	1.8	1790
C#CCN(c1cnc(N(CC)CC)nc1N[C@@H](Cc1ccc(OC(=O)N2CCCC2)cc1)C(=O)O)S(=O)(=O)c1ccc(F)cc1	10700	11	4600
CCN(CC)c1ncc(N(c2cccc(F)c2)S(C)(=O)=O)c(N[C@@H](Cc2ccc(OC(=O)N3CCCC3)cc2)C(=O)O)n1	483	50	23400
CCN(CC)c1ncc(N(CC)C(=O)N2CCCCC2)c(N[C@@H](Cc2ccc(OC(=O)N3CCCC3)cc2)C(=O)O)n1	12	3.3	1540

Other lines, results leading:

IC50 [1] [nM]	IC50 [2] [nM]	IC50 [3] [nM]	Structure (SMILES)
12	2.9	2020	CCN(CC)c1ncc(N(CC)C(=O)c2nccs2)c(N[C@@H](Cc2ccc(OC(=O)N3CCCC3)cc2)C(=O)O)n1
3000	366	–	CCN(CC)c1ncc(N(CC)c2ccccn2)c(N[C@@H](Cc2ccc(OC(=O)N3CCCC3)cc2)C(=O)O)n1
419	50.7	18600	CCN(CC)c1ncc(N(CC)S(=O)(=O)N(C)C)c(N[C@@H](Cc2ccc(OC(=O)N3CCCC3)cc2)C(=O)O)n1
217	15.5	7930	CCN(CC)c1ncc(N(CC)S(C)(=O)=O)c(N[C@@H](Cc2ccc(OC(=O)N3CCCC3)cc2)C(=O)O)n1
321	80	8300	CCN(CC)c1ncc(N(CC)c2ncccn2)c(N[C@@H](Cc2ccc(OC(=O)N3CCCC3)cc2)C(=O)O)n1
62	4.7	297	CCN(CC)c1ncc(N(CC)C(=O)c2ccoc2)c(N[C@@H](Cc2ccc(OC(=O)N3CCCC3)cc2)C(=O)O)n1
29	12	5830	CCN(CC)c1ncc(N(CC)C(=O)NCCc2ccccc2)c(N[C@@H](Cc2ccc(OC(=O)N3CCCC3)cc2)C(=O)O)n1
3680	888	–	CCN(CC)c1ncc(N(c2ncccn2)S(C)(=O)=O)c(N[C@@H](Cc2ccc(OC(=O)N3CCCC3)cc2)C(=O)O)n1
311	589	–	CCN(CC)c1ncc(N(CC)c2ccc(F)cc2)c(N[C@@H](Cc2ccc(OC(=O)N3CCCC3)cc2)C(=O)O)n1
1370	127	18600	CCN(CC)c1ncc(N(C2CCCC2)S(C)(=O)=O)c(N[C@@H](Cc2ccc(OC(=O)N3CCCC3)cc2)C(=O)O)n1
104	2.8	1290	CCN(CC)c1ncc(N(CC)C(=O)c2ccccc2F)c(N[C@@H](Cc2ccc(OC(=O)N3CCCC3)cc2)C(=O)O)n1
29	1.6	2380	CCN(CC)c1ncc(N(CC)C(=O)c2cccs2)c(N[C@@H](Cc2ccc(OC(=O)N3CCCC3)cc2)C(=O)O)n1
1050	158	9550	CCN(CC)c1ncc(N(c2ccc(F)cc2)S(C)(=O)=O)c(N[C@@H](Cc2ccc(OC(=O)N3CCCC3)cc2)C(=O)O)n1
151	37.9	2550	CCN(CC)c1ncc(N(c2ccncc2)S(C)(=O)=O)c(N[C@@H](Cc2ccc(OC(=O)N3CCCC3)cc2)C(=O)O)n1
50	1.3	331	CCN(CC)c1ncc(N(CC)C(=O)c2ccc(F)cc2)c(N[C@@H](Cc2ccc(OC(=O)N3CCCC3)cc2)C(=O)O)n1
510	22.5	10600	C#CCN(c1cnc(N(CC)CC)nc1N[C@@H](Cc1ccc(OC(=O)N2CCCC2)cc1)C(=O)O)S(C)(=O)=O
3	1.4	234	CCN(CC)c1ncc(N(CC)C(=O)N2CCOCC2)c(N[C@@H](Cc2ccc(OC(=O)N3CCCC3)cc2)C(=O)O)n1
223	22.7	7220	CCN(CC)c1ncc(N(C(C)C)S(C)(=O)=O)c(N[C@@H](Cc2ccc(OC(=O)N3CCCC3)cc2)C(=O)O)n1
